# ChEMBL document CHEMBL1133037, “The design, synthesis and physical chemical properties of novel human vasopressin V2-receptor antagonists optimized for parenteral delivery” (Bioorg Med Chem Lett, 2000)
# Chains of the proteins cited; added tags and fusions are not shown.
# UniProt P30518, whole entry: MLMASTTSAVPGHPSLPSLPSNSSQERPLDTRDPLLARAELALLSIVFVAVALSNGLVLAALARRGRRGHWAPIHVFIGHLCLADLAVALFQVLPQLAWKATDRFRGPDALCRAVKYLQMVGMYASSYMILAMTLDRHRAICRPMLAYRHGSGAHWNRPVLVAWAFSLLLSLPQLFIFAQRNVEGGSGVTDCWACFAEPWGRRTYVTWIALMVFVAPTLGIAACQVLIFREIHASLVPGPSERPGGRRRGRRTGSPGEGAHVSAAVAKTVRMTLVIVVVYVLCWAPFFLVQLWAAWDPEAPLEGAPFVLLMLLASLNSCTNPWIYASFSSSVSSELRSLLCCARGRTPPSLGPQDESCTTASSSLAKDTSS
# Target: Vasopressin V2 receptor (Homo sapiens, UniProt P30518)
# Test: Displacement of [3H]AVP from human vasopressin V2-receptor expressed in murine fibroblast cell (LV2) membranes
# Type: cell-based
row,Compound,IC50
1,O=C(Nc1ccc(C(=O)N2Cc3ccc(C(=O)O)n3Cc3ccccc32)c(Cl)c1)c1ccccc1-c1ccccc1,4 nM
2,CN1CCN(C(=O)c2ccc3n2Cc2ccccc2N(C(=O)c2ccc(NC(=O)c4ccccc4-c4ccccc4)cc2Cl)C3)CC1.O=C(O)CC(O)(CC(=O)O)C(=O)O,11.5 nM
